Source: ChEMBL document CHEMBL5729726, “Tricyclic compounds as histone methyltransferase inhibitors” (2023)

Amino acid sequences for entries named in this document (tags omitted). Residues count along the entry.
UniProt Q96KQ7, 2-1210 limits assumed: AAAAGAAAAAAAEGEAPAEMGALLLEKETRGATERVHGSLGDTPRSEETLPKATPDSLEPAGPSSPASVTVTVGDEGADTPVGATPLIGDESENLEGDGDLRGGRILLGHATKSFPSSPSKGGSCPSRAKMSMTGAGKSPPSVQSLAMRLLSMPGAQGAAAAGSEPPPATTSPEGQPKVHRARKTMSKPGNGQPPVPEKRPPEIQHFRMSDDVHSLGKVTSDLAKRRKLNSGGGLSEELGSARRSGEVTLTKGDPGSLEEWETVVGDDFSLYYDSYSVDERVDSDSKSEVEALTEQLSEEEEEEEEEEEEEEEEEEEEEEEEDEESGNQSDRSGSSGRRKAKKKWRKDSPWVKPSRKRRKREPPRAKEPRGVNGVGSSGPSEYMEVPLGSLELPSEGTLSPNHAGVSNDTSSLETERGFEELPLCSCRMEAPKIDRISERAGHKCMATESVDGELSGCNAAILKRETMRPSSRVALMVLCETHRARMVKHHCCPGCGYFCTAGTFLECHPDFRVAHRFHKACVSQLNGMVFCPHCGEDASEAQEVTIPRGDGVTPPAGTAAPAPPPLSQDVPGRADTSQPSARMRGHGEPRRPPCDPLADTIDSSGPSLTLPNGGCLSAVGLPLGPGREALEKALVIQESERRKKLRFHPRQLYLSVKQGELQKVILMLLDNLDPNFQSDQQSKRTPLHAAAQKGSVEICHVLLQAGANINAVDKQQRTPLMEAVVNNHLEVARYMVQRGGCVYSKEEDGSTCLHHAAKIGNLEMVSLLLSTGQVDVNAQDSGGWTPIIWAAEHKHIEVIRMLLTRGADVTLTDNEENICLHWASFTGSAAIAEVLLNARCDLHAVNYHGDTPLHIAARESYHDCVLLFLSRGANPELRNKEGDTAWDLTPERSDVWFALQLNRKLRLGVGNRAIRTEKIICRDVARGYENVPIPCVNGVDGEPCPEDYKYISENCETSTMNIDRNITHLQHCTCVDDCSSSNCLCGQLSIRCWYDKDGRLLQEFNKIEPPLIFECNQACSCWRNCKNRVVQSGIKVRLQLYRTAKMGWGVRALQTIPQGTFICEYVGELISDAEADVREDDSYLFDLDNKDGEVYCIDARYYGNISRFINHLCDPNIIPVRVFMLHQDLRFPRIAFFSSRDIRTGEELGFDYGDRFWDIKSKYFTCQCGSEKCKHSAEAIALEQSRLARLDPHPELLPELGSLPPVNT

Target: Histone-lysine N-methyltransferase EHMT2 (Homo sapiens, UniProt Q96KQ7)
Experiment: Enzymatic Activity Assay: For the assay, the following buffer was used to set up reactions: 50 mM Tris-HCl pH9, 50 mM NaCl, 0.01% Tween-20 and 1 mM DTT (added fresh prior to starting the reactions). The assay is set up by adding a final concentration of 0.15 nM G9a, 15 uM S-adenosyl-methionine and 100 nM biotinylated histone 3 peptide (1-21). The reaction is incubated at rt for 1 hour and subseque

In the case of `COc1cc2nc3c(c(N(C(N)=O)C4CCNCC4)c2cc1OC)CCC3`, the IC50 is reported as 0.355 µM.
